In series [1] the test system is NCCCC(=O)O. Nature of the series: Ratio of Kcat to Km for pig GABA aminotransferase. The note with it: Sus scrofa.
Series [2] concerns NCCCC(=O)O. The series can be described thus: Activity of pig GABA aminotransferase using alpha-ketoglutarate as substrate after 16 hrs by Hanes-Woolf plot analysis. The note with it: Sus scrofa.

As usually defined, the kcat/Km is the second-order rate constant that governs catalysis at low substrate concentration. As a reminder, the kcat is the number of substrate molecules converted per active site and unit of time at saturation.

In the case of “4-aminobutyrate aminotransferase, mitochondrial (Sus scrofa), P80147”, in series [1], the kcat/Km is 643 M⁻¹ s⁻¹. Also, the kcat in series [2] amounted to 0.817 s⁻¹.

For the origin of these results see ChEMBL document CHEMBL2146416.
